Source: patent US20240238294A1 (published 2024)
Read-outs that look alike come from different tables or passages of the source.

Legend:
H358 parental cells [1] = system: H358 parental cells
H358 parental cells [2] = system: H358 parental cells; remark: listed apart in the source

Question: What does the source list for `COc1cc2nc(C)nc(N[C@H](C)c3cc(N)cc(C(F)(F)F)c3)c2cc1O[C@H]1CCOC1` [BI-3406]?
Answer: growth inhibition (H358 parental cells [1]): modestly inhibited growth; growth inhibition (H358 parental cells [2]): modestly inhibited growth
